In patent US7871808B2, “Isolated microorganism having an ability to produce L-histidine” (priority 1999, dated 2011):

System: parent strain H-9340

COc1cc(NC(C)CCCN)c2ncccc2c1 (centres unmarked) [Primaquine disodium salt, primaquine disodium salt]
Growth or non-growth of the strain on agar plate medium (150 mg/liter primaquine disodium salt in agar plate medium, 1 to 10 cells/cm^2, 33° C. for 4 days): − | Growth of the strain on agar plate culture medium containing primaquine (agar plate culture medium containing primaquine, 33° C. for 4 days): did not grow

Structures can show the parent of a compound that is named as a salt.
